Measured affinities in a library of Ab-91 heavy chain variants

Data: MIT Lincoln Laboratory AlphaSeq set, Engelhart et al. 2022, doi:10.1038/s41597-022-01779-4, as distributed in FLAb.

Target: peptide PDVDLGDISGINAS, taken from heptad repeat 2 (HR2) of SARS-CoV-2 spike.

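The starting antibody came from a phage panning campaign against this peptide. The library (AAYL51) carries one to three amino acid substitutions per variant, with no insertions or deletions. Affinity was read by AlphaSeq, a pooled yeast mating assay with surface-displayed partners. The frequency of each diploid, read from paired DNA barcodes, reflects how well the two displayed proteins bind. Read counts were normalised to the haploid input and turned into Kd by a linear fit to BCL2-family pairs of known affinity, for each replicate. The assay was run in three technical replicates.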

Parent scFv Ab-91: VL joined to VH by a 15-residue (Gly4Ser)3 linker. Changes lie in the heavy chain CDRs alone.
VL: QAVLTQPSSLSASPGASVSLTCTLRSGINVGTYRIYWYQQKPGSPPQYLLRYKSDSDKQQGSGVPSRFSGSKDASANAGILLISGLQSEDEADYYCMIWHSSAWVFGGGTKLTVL
VH: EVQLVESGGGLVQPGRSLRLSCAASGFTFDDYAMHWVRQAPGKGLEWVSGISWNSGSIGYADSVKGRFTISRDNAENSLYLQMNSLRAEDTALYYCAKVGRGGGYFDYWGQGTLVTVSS

Variants are written as CDR1, CDR2 and CDR3 of the heavy chain (limits as in the source). Parent: GFTFDDYAMH, GISWNSGSIGYADSVK, VGRGGGYFDY.
Values are log10 of the apparent Kd in nM; lower means stronger binding.
An entry "n.d." has no value in the source: the pair was not observed among the diploids in that replicate. This suggests poor binding but is not conclusive.

| # | CDR-H1 | CDR-H2 | CDR-H3 | log10 Kd, replicates | empty controls |
|---|---|---|---|---|---|
| 1 | GFTFDDYAMH | GISWNSGSSPYADSVK | VGCGGGYFDY | 4.64 5.21 5.06 | 5/9 (5.47) |
| 2 | GFTSDDYAMH | GISWNSRSIGYAQSVK | VGRGGGYFDY | n.d. 6.82 n.d. | 6/9 (4.64) |
| 3 | GFMFDDYAPH | GISWNSGSIGRADSVK | VGRGGGYFDY | 3.48 n.d. n.d. | 4/9 (3.77) |
| 4 | GFTFDTYAMH | GISWNSGSIGYADSVK | VKRGGIYFDY | n.d. 5.43 n.d. | 3/9 (5.11) |
| 5 | GFTFDDPAMH | PISWNSGSIGYADSVK | VGRGGNYFDY | n.d. n.d. 3.35 | 1/9 (3.71) |
| 6 | GFTFDDYAMH | NISWNSGSIGYADSVK | VGRGKGLFDY | n.d. n.d. n.d. | 1/9 (3.65) |
| 7 | GFTFYDYAMH | GISWNVGSIGYADSVK | VGRGGGYFDY | 4.88 6.11 5.33 | 6/9 (4.46) |
| 8 | GTAFDDYAMH | GISWSSGSIGYADSVK | VGRGGGYFDY | 3.81 n.d. n.d. | 2/9 (4.36) |
| 9 | GFTFDDYAMH | GISWNNGSIGYADSVK | VGRGGMSFDY | 5.60 4.74 4.47 | 6/9 (5.01) |
| 10 | GFTFDDYAMH | GFSWNSGSIGYADSVK | CGRHGGYFDY | n.d. n.d. n.d. | 2/9 (4.18) |
| 11 | GFTFDWYEMH | GISWNSGSIGYADSVG | VGRGGGYFDY | 4.62 n.d. n.d. | 3/9 (5.77) |
| 12 | GFTFDDYAMH | GISWLSGSIGYADSVK | VGRGTGGFDY | n.d. n.d. n.d. | 2/9 (4.55) |
| 13 | GFTFDDYAMH | GISWNSGSIGDADSVI | VGRGGGDFDY | n.d. 4.53 4.55 | 2/9 (4.74) |
| 14 | GFTFDDYAMH | GISWNSGSIGYPDSVK | VFRGGGWFDY | n.d. n.d. n.d. | 0/9 |
| 15 | GFTFDDYAMH | GISWNSGSIGYADSVK | VGRYGDYFDN | 2.26 2.31 1.73 | 4/9 (4.60) |
| 16 | MFTFDDYAMH | GISWNSGSIGYANSVK | VGRFGGYFDY | 4.50 n.d. n.d. | 2/9 (4.80) |
| 17 | GFTFDDYRMH | GISWNSGSIGYADSVK | VGRGGGYFDY | 4.70 n.d. n.d. | 2/9 (3.85) |
| 18 | GKHFDDYAMK | GISWNSGSIGYADSVK | VGRGGGYFDY | 0.84 1.05 0.54 | 0/9 |
| 19 | GFTFDNYAMH | GISWNHGSIGYADSVK | VGRGGGYLDY | n.d. n.d. n.d. | 0/9 |
| 20 | GFTKDDYAMH | GISWNSGSIGYADMVQ | VGRGGGYFDY | n.d. n.d. 3.29 | 4/9 (4.20) |
| 21 | GVTEDDYAMH | GISWNSGSIGYADSVK | VGRGFGYFDY | 3.06 n.d. n.d. | 0/9 |
| 22 | GFTFDDYAMH | GQSWNSGSIGYADSVK | VWRLGGYFDY | n.d. n.d. n.d. | 1/9 (4.31) |
| 23 | GFTFDPYAMH | GISWNSGSIGYADSVK | YGRGGGYFHY | n.d. n.d. n.d. | 1/9 (4.12) |
| 24 | FFTFDDYAMH | GISWNSGSIGYADEVK | VGRGGGYFDI | 2.17 2.41 1.70 | 2/9 (4.30) |
| 25 | GFTFDDYAMH | GISWNSGSIWYADPVK | VGRGGGYFDY | 3.66 n.d. n.d. | 2/9 (3.89) |
| 26 | GFTFDDYAMC | GISWNSLSIGYADSVN | VGRGGGYFDY | 1.36 1.80 0.65 | 1/9 (4.21) |
| 27 | GFTFDYYAMH | GISWNSGSIGYADSVK | VGRGGGYNDS | 4.12 5.16 n.d. | 3/9 (4.39) |
| 28 | GFTFDDYAMH | GISWYSGSIGYADSVK | VGPPGGYFDY | n.d. n.d. n.d. | 0/9 |
| 29 | GFTKPDYAMH | GISWNSGSIGYAESVK | VGRGGGYFDY | n.d. n.d. n.d. | 1/9 (3.83) |
| 30 | GFKFDDYAMH | GISWCSGSGGYADSVK | VGRGGGYFDY | 3.11 3.56 n.d. | 3/9 (4.14) |
| 31 | GFTFDDYAMR | GISWNSGSIGYAYSVK | VGPGGGYFDY | n.d. n.d. n.d. | 0/9 |
| 32 | GFTFDDYAMH | GISWNSGSIGYADSVI | VGRGGGYHDC | 3.77 3.69 3.48 | 0/9 |
| 33 | GFTFDLYPMH | GISWNSGSIGYADSVK | VGRGGGYRDY | n.d. n.d. n.d. | 0/9 |
| 34 | GFTFDDYAMH | GISWNSGSIGYADSVK | VARGCGEFDY | n.d. n.d. n.d. | 0/9 |
| 35 | GFTFDDYAYY | GISWNMGSIGYADSVK | VGRGGGYFDY | n.d. n.d. n.d. | 0/9 |
| 36 | KFTFDDYAMH | GISWNSGSIGSADSVK | VGRGGGYFDN | n.d. n.d. n.d. | 0/9 |
| 37 | GFTFSDYAMH | GISWNSGSIGYEDSVK | VGRGGGYFQY | 3.92 3.35 2.49 | 3/9 (4.54) |
| 38 | GFTFDDYAMH | GISVNSTSIIYADSVK | VGRGGGYFDY | 4.33 n.d. n.d. | 1/9 (3.54) |
| 39 | GFSFDDYFMH | GISWNSGSIGYADSVK | VGRGGGYCDY | n.d. n.d. n.d. | 1/9 (5.86) |
| 40 | GFTFDDYAMH | GISWGSGSIGYADSVK | VGRGGGYFNY | 3.09 n.d. n.d. | 1/9 (4.81) |
| 41 | GFTFEDYAMH | GISWNSGSIGKADSMK | VGRGGGYFDY | 5.19 n.d. 4.89 | 2/9 (4.82) |
| 42 | GRTFDDYAMH | GISWASGSIGYADSVK | VGRGGGYFDT | n.d. n.d. n.d. | 3/9 (4.18) |
| 43 | GFTFDDYAMH | GIGWNSGSIPYADSVN | VGRGGGYFDY | n.d. n.d. n.d. | 0/9 |
| 44 | GFTFDDYAMH | QISWNSGSIGNADNVK | VGRGGGYFDY | n.d. n.d. n.d. | 0/9 |
| 45 | GFTFDDYAMH | GDSWNSGFIGYADSVK | VGRGGGYFIY | n.d. n.d. n.d. | 1/9 (3.78) |

Top 4 of the variants detected in all replicates, tightest first:

CDR-H1	CDR-H2	CDR-H3	log10 Kd, replicates	empty controls
GKHFDDYAMK	GISWNSGSIGYADSVK	VGRGGGYFDY	0.84 1.05 0.54	0/9
GFTFDDYAMC	GISWNSLSIGYADSVN	VGRGGGYFDY	1.36 1.80 0.65	1/9 (4.21)
FFTFDDYAMH	GISWNSGSIGYADEVK	VGRGGGYFDI	2.17 2.41 1.70	2/9 (4.30)
GFTFDDYAMH	GISWNSGSIGYADSVK	VGRYGDYFDN	2.26 2.31 1.73	4/9 (4.60)

Parent in this assay: reference entry 1.86, copy in this library 0.88.
Three control strains display no target. For library AAYL51, 21% of the pairings with them gave a signal, with a median of 4.54 and one signal in twenty below 3.26, so weak values seen in few replicates may be background. For each scFv, signals with the empty controls are counted beside the result, with their mean in brackets.